{"sequences": {"note": "By UniProt entry, the sequences of proteins in these tests, tags left out.", "UniProt P47747, whole entry": "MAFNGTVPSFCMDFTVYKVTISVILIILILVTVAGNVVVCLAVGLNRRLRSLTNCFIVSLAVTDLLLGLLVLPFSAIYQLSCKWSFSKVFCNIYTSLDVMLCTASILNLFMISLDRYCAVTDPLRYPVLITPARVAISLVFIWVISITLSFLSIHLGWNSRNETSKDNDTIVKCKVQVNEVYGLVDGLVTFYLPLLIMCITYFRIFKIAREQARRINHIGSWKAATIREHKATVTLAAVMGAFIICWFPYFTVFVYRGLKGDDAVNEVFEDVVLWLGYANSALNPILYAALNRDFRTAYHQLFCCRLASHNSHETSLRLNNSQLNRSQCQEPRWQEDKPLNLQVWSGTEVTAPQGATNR"}, "source": "patent US4559344A", "about": "“Pyridine-pyrimidinone derivatives, a process for their production and H -antagonist medicament containing these compounds” (Ludwig Heumann & Co. GmbH, priority 1983, dated 1985)", "target": "T1, histamine-H2-receptors (Cavia porcellus, UniProt P47747)", "T1 construct": "in vitro on the isolated atrium of guinea pigs; from tissue; host or cells: isolated guinea pig atrium", "test": "pA2 determination of H2-antagonistic activity in vitro on the isolated atrium of guinea pigs", "settings": "isolated guinea pig atrium", "excerpt": "A recognized method of measuring H2 -antagonistic activity is based on determination of the pA2 -values in vitro on the isolated atrium of guinea pigs (cf. Ariens, Molecular Pharmacology, Vol. 1, Academic Press, New York, 1964)."}
{"smiles": "CN/C(=N/CCSCc1nc[nH]c1C)NC#N", "note": "[Cimetidine, cimetidine]", "values": [{"measurement": "Kb", "value": 617, "unit": "nM"}]}
